AlphaSeq binding of Ab-14 light chain variants to a spike HR2 peptide

Binding partner: SARS-CoV-2 spike HR2 peptide, sequence PDVDLGDISGINAS.

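Phage display of a naive human antibody library on the peptide gave the parent. The library (AAYL50) carries one to three amino acid substitutions per variant, with no insertions or deletions. Affinity was read by AlphaSeq, a pooled yeast mating assay with surface-displayed partners. The frequency of each diploid, read from paired DNA barcodes, reflects how well the two displayed proteins bind. Each replicate has its own calibration line, from reference interactions of the BCL2 family. Each pool was mated in three replicate cultures.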

Parent: Ab-14, a human scFv built as VH, a (GGGGS)3 linker, VL. Only the CDRs of the light chain vary.
VH: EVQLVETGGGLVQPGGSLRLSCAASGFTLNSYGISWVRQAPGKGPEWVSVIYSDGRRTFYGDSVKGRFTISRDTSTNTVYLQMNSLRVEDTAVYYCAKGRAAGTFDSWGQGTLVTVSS
VL: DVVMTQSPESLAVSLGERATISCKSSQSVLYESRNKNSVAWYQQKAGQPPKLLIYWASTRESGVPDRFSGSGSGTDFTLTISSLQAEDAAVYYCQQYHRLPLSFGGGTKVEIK

Positions count from residue 1 of the parent VL; W56A puts A in place of W. All variants listed here change Q96 of the VL, counted from its first residue. The read-out is the apparent dissociation constant on a log10 scale (nM): the lower, the stronger. A mean of the replicates is given; it leaves out those without a signal. "ND" means that the variant was in the library but no mating with the target was seen in that replicate; the authors take this as a sign of poor binding, and no number exists. The list is sorted by this average, lowest first, undetected variants last. Empty control strains, which show no peptide, gave a signal in 18% of pairings with library AAYL50; the median was 4.19 and 95% of these signals were weaker than 2.99. No background was subtracted. Also given: how often the same scFv was detected with the empty control strains. In this assay the parent's reference entry averaged 0.65; its copy inside this library read 1.68.

- W56A Q96T: 0.02, 0.33, 0.23 (mean 0.19; controls 2 of 9)
- W56E E61T Q96C: 0.16, 0.42, 0.32 (mean 0.30; controls 4 of 9)
- S26Q T59Q Q96D: 0.39, 0.66, 0.65 (mean 0.57; controls 0 of 9)
- S25K S33G Q96D: 0.73, 1.03, 1.38 (mean 1.05; controls 1 of 9)
- S25C E61H Q96H: 1.28, 1.20, 1.79 (mean 1.43; controls 1 of 9)
- T59M Q96A: 1.83, 1.56, 1.78 (mean 1.72; controls 0 of 9)
- R34D N37H Q96E: 1.90, 2.00, 2.12 (mean 2.01; controls 5 of 9)
- S26D Q96M L100M: 2.01, 1.88, 2.38 (mean 2.09; controls 5 of 9)
- S38A Q96P H98E: 2.71, 2.03, 2.22 (mean 2.32; controls 1 of 9)
- Q96T: 2.52, 1.94, 2.67 (mean 2.38; controls 3 of 9)
- S33Y Q96F S103N: 2.61, ND, ND (controls 0 of 9)
- Q96P: ND, 2.94, ND (controls 0 of 9)
- N37V Q96V L100T: 3.16, ND, ND (controls 1 of 9)
- K24S Q96E L100H: 3.37, 2.96, 3.21 (mean 3.18; controls 7 of 9)
- V29S N35K Q96R: ND, ND, 3.19 (controls 2 of 9)
- N37K R60F Q96D: ND, 3.69, ND (controls 1 of 9)
- E61D S62K Q96C: 3.61, ND, 4.03 (mean 3.82; controls 0 of 9)
- E61V Q96I P101N: ND, 3.00, 4.87 (mean 3.94; controls 4 of 9)
- Y31W S38C Q96F: 4.64, 3.61, 3.85 (mean 4.03; controls 3 of 9)
- E61N Q96E L100S: 4.07, ND, ND (controls 0 of 9)
- K36T V39S Q96R: ND, ND, 4.16 (controls 4 of 9)
- S58D T59F Q96T: 4.76, 3.69, ND (mean 4.22; controls 5 of 9)
- S38Q V39G Q96D: ND, ND, 4.24 (controls 4 of 9)
- S25I Q96Y L100N: 4.24, ND, ND (controls 1 of 9)
- N35P Q96C P101T: 4.31, ND, ND (controls 2 of 9)
- Q27F Q96M Y97L: ND, ND, 4.46 (controls 0 of 9)
- A40H Q96S Y97D: 5.99, ND, 3.97 (mean 4.98; controls 0 of 9)
- S38K E61N Q96F: ND, 5.46, 4.99 (mean 5.23; controls 4 of 9)
- S33E W56I Q96C: ND, 5.30, ND (controls 2 of 9)
- S26F A40L Q96T: ND, 5.40, ND (controls 2 of 9)
- S33K V39D Q96V: 6.14, ND, ND (controls 1 of 9)
- Q27F N35K Q96A: ND, ND, ND (controls 0 of 9)
- E32F A57Q Q96A: ND, ND, ND (controls 1 of 9)
- S38A Q96Y Y97P: ND, ND, ND (controls 3 of 9)
- A40E Q96T P101I: ND, ND, ND (controls 0 of 9)
- S38C Q95S Q96N: ND, ND, ND (controls 3 of 9)
- S28Y Q96R S103V: ND, ND, ND (controls 0 of 9)
- V39R Q96D L102H: ND, ND, ND (controls 0 of 9)
- E61R Q96V H98Y: ND, ND, ND (controls 0 of 9)
- L30Y W56R Q96I: ND, ND, ND (controls 0 of 9)
- E32Y N35R Q96H: ND, ND, ND (controls 0 of 9)
- Q95A Q96H R99Q: ND, ND, ND (controls 1 of 9)
- S26L R60T Q96H: ND, ND, ND (controls 0 of 9)
- A40R T59N Q96I: ND, ND, ND (controls 0 of 9)

The last 5 entries again:

{"changes": "L30Y W56R Q96I", "replicates, log10 nM": "ND, ND, ND", "mean log10 Kd (nM)": "ND", "signal with controls": "0/9"}
{"changes": "E32Y N35R Q96H", "replicates, log10 nM": "ND, ND, ND", "mean log10 Kd (nM)": "ND", "signal with controls": "0/9"}
{"changes": "Q95A Q96H R99Q", "replicates, log10 nM": "ND, ND, ND", "mean log10 Kd (nM)": "ND", "signal with controls": "1/9"}
{"changes": "S26L R60T Q96H", "replicates, log10 nM": "ND, ND, ND", "mean log10 Kd (nM)": "ND", "signal with controls": "0/9"}
{"changes": "A40R T59N Q96I", "replicates, log10 nM": "ND, ND, ND", "mean log10 Kd (nM)": "ND", "signal with controls": "0/9"}

Data: MIT Lincoln Laboratory AlphaSeq set, Engelhart et al. 2022, doi:10.1038/s41597-022-01779-4, as distributed in FLAb.